Assay results: BindingDB's records for doi:10.1016/j.bioorg.2016.06.001 (Tehran University of Medical Sciences, 2016)

Protein sequences, listed by entry. Tags and fused reporters are not part of them.
UniProt Q9N1N9, whole entry: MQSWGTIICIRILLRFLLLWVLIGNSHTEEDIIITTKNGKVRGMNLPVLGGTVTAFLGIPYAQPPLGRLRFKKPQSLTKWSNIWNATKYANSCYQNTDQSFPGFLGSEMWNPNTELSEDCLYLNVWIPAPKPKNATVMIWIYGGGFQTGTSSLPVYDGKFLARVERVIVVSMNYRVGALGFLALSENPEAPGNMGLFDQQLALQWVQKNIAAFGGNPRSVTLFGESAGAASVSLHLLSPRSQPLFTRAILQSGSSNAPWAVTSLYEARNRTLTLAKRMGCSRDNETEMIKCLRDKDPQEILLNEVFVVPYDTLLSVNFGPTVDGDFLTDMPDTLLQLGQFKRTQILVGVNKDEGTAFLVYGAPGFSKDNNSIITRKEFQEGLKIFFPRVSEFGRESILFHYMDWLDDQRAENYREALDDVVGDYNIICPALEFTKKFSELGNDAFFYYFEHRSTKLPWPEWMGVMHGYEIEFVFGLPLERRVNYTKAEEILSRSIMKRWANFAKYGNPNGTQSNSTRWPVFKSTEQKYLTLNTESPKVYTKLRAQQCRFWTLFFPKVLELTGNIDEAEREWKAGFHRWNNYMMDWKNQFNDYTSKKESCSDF

Target: Carboxylic ester hydrolase (Equus caballus, UniProt Q9N1N9)
Experiment: AChE and BChE Inhibition Assay
Conditions: pH 8
Method: In vitro AChEI activity was performed based on the modified Ellman's methodas previously reported by our group using a 96-well plate reader (BioTek ELx808). […] Each well contained 50 uL potassium phosphate buffer (KH2PO4/K2HPO4, 0.1 M, pH 8), 25 uL prepared sample as described above, 25 uL enzyme with final concentration of 0.22 U/mL in buffer. They were preincubated for 15 min at rt, and then 125 uL DTNB (3 mM in buffer) was added. […] The IC50 values were determined graphically from inhibition curves (log inhibitor concentration vs. percent of inhibition).

Question: With `CCN(C)C(=O)Oc1cccc([C@H](C)N(C)C)c1` [3-[(1S)-1-(dimethylamino)ethyl]phenyl N-ethyl-N-methylcarbamate] as the compound, how does the IC50 read?
Answer: Its IC50 is 7.72 µM.
